Values of other authors as cited in patent publication US20220152045A1 (priority 2012, published 2022).
Only a part of the results on these compounds is given; other tests are left out.

Conditions: patients at the age of 65 or more; cited from earlier work

CCC(=O)N(c1ccccc1)C1(C(=O)OC)CCN(CCC(=O)OC)CC1
Decrease of clearance of remifentanil: 25%
